These results are taken from PubChem BioAssay (EPA / NIEHS).

Values joined by “and” are separate entries in the source; they are usually repeats but may differ in a detail not shown here. Equal entries are not always repeated. The list shows a part of the results, in another mix than the full data. A structure can be active in one record and inactive in another. Active and inactive are the calls of the source. How the source made its calls: active means hit-call score of the fitted dose curve at least 0.9, where 1 is the maximum; inactive means score below 0.9.

Read-out in experiment [1]: Interleukin-6 (IL6), IL6 (gene 3569)
The experiment can be described thus: BSK_CASM3C_IL6: BioMAP Diversity Plus: CASM3C Assay for Interleukin-6 (IL6) Biomarker Activity for (AID 2283040). The following applies: actives raise or lower the signal; primary human coronary artery smooth muscle cells.

Read-out in experiment [2]: Tissue plasminogen activator (tPA), PLAT (gene 5327)
The experiment can be described thus: BSK_BE3C_tPA: BioMAP Diversity Plus: BE3C Assay for Tissue plasminogen activator (tPA) Biomarker Activity (AID 2283041).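 Further: tPA level quantified by ELISA one day after compound addition.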 The settings on record: actives raise or lower the signal; primary human bronchial epithelial cells. The essentials:
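Gain- or loss-of-signal in tPA, measured by ELISA, derived by bidirectional fitting against DMSO. Cells: human primary bronchial epithelial; read at 24 h after chemical dosing.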

Read-out in experiment [3]: Interleukin-8 (IL8), CXCL8 (gene 3576)
The experiment can be described thus: BSK_CASM3C_IL8: BioMAP Diversity Plus: CASM3C Assay for Interleukin-8 (IL8) Biomarker Activity (AID 2283042).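 Further: IL-8 protein level quantified by ELISA.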 The following applies: actives raise or lower the signal; primary human coronary artery smooth muscle cells.

Read-out in experiment [4]: Human Leukocyte Antigen - DR isotype (HLADR), HLA-DRA (gene 3122)
In words: BSK_CASM3C_HLADR: BioMAP Diversity Plus: CASM3C Assay for Human Leukocyte Antigen - DR isotype (HLADR) Biomarker Activity (AID 2283043).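 Further: cell-surface HLA-DR protein level quantified by ELISA.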 The following applies: actives raise or lower the signal; primary human coronary artery smooth muscle cells.

Read-out in experiment [5]: Macrophage colony-stimulating factor (MCSF), CSF1 (gene 1435)
The experiment can be described thus: BSK_CASM3C_MCSF: BioMAP Diversity Plus: CASM3C Assay for Macrophage colony-stimulating factor (MCSF) Biomarker Activity (AID 2283044).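 Further: M-CSF protein amount quantified by ELISA after 24 h exposure.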 The settings on record: actives raise or lower the signal; primary human coronary artery smooth muscle cells.

Read-out in experiment [6]: Low-density lipoprotein receptor (LDLR), LDLR (gene 3949)
In words: BSK_CASM3C_LDLR: BioMAP Diversity Plus: CASM3C Assay for Low-density lipoprotein receptor (LDLR) Biomarker Activity (AID 2283045).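 Further: LDLR protein level on the cell surface quantified by ELISA.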 The following applies: actives raise or lower the signal; primary human coronary artery smooth muscle cells.

Read-out in experiment [7]: Monocyte Chemoattractant Protein-1 (MCP1), CCL2 (gene 6347)
The experiment can be described thus: BSK_CASM3C_MCP1: BioMAP Diversity Plus: CASM3C Assay for Monocyte Chemoattractant Protein-1 (MCP1) Biomarker Activity (AID 2283046).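 Further: MCP-1 level quantified by ELISA 24 h after dosing.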 The settings on record: actives raise or lower the signal; primary human coronary artery smooth muscle cells.

A short description of experiment [8]: BSK_CASM3C_Proliferation: Cell Proliferation Assessment in the BioMAP Diversity Plus: CASM3C Assay (AID 2283047).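 Further: sulforhodamine B total protein stain as relative cell number at 560 nm; sub-confluent cells exposed 48 h before staining; fitted both ways against DMSO so gain or loss of cell number.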 The following applies: primary human coronary artery smooth muscle cells.
Read-out in experiment [9]: Monokine induced gamma interferon (MIG), CXCL9 (gene 4283)
The experiment can be described thus: BSK_CASM3C_MIG: BioMAP Diversity Plus: CASM3C Assay for Monokine induced gamma interferon (MIG) Biomarker Activity (AID 2283048).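 Further: MIG protein level measured by ELISA.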 The settings on record: actives raise or lower the signal; primary human coronary artery smooth muscle cells.

Read-out in experiment [10]: serum amyloid A (SAA), SAA1 (gene 6288)
In words: BSK_CASM3C_SAA: BioMAP Diversity Plus: CASM3C Assay for serum amyloid A (SAA) Biomarker Activity (AID 2283049).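 Further: SAA protein level quantified by ELISA.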 The following applies: actives raise or lower the signal; primary human coronary artery smooth muscle cells.

The nature of experiment [11]: BSK_CASM3C_SRB: Viability Assessment in the BioMAP Diversity Plus: CASM3C Assay (AID 2283050).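 Further: total protein by SRB staining as cytotoxicity measure in parallel cultures; cells exposed to compound for 24 h.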 The following applies: primary human coronary artery smooth muscle cells.
Read-out in experiment [12]: Thrombomodulin, THBD (gene 7056)
The experiment can be described thus: BSK_CASM3C_Thrombomodulin: BioMAP Diversity Plus: CASM3C Assay for Thrombomodulin Biomarker Activity (AID 2283051).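 Further: thrombomodulin protein level measured by ELISA 24 h after dosing.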 The settings on record: actives raise or lower the signal; primary human coronary artery smooth muscle cells.

Read-out in experiment [13]: Tissue Factor, F3 (gene 2152)
The experiment can be described thus: BSK_CASM3C_TissueFactor: BioMAP Diversity Plus: CASM3C Assay for Tissue Factor Biomarker Activity (AID 2283052).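 Further: cell surface tissue factor protein level read by ELISA.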 The settings on record: actives raise or lower the signal; primary human coronary artery smooth muscle cells.

Read-out in experiment [14]: Interferon-gamma inducible Protein 10 (IP10), CXCL10 (gene 3627)
The experiment can be described thus: BSK_hDFCGF_IP10: BioMAP Diversity Plus: hDFCGF Assay for Interferon-gamma inducible Protein 10 (IP10) Biomarker Activity (AID 2283053). The following applies: actives raise or lower the signal; primary human foreskin fibroblasts. The procedure, abridged:
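Cells: human dermal foreskin fibroblasts. Exposure: 24 h post-dosing. Detection: IP-10 ELISA, with values expressed against DMSO controls and fitted in both directions.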

Read-out in experiment [15]: Urokinase-type plasminogen activator receptor (uPAR), PLAUR (gene 5329)
In words: BSK_CASM3C_uPAR: BioMAP Diversity Plus: CASM3C Assay for Urokinase-type plasminogen activator receptor (uPAR) Biomarker Activity (AID 2283054).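 Further: cell-surface uPAR protein level quantified by ELISA.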 The settings on record: actives raise or lower the signal; primary human coronary artery smooth muscle cells.

Read-out in experiment [16]: Vascular cell adhesion molecule 1 (VCAM1), VCAM1 (gene 7412)
In words: BSK_CASM3C_VCAM1: BioMAP Diversity Plus: CASM3C Assay for Vascular cell adhesion molecule 1 (VCAM1) Biomarker Activity (AID 2283055).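 Further: VCAM-1 protein level quantified by ELISA on the cells.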 The settings on record: actives raise or lower the signal; primary human coronary artery smooth muscle cells.

Read-out in experiment [17]: Collagen III, COL3A1 (gene 1281)
In words: BSK_hDFCGF_CollagenIII: BioMAP Diversity Plus: hDFCGF Assay for Collagen III Biomarker Activity (AID 2283056). The settings on record: actives raise or lower the signal; primary human foreskin fibroblasts. The essentials:
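Response relative to DMSO, fitted in both directions, reflects ELISA-measured collagen III in human primary skin fibroblasts 24 h after compound addition.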

Read-out in experiment [18]: Epidermal growth factor receptor (EGFR), EGFR (gene 1956)
The experiment can be described thus: BSK_hDFCGF_EGFR: BioMAP Diversity Plus: hDFCGF Assay for Epidermal growth factor receptor (EGFR) Biomarker Activity (AID 2283057). The following applies: actives raise or lower the signal; primary human foreskin fibroblasts. The procedure, abridged: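 Dosing human primary skin fibroblasts, then measuring surface EGFR by ELISA at 24 h, gives the endpoint; gains and losses relative to DMSO were fitted in both directions.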

Read-out in experiment [19]: Interleukin-8 (IL8), CXCL8 (gene 3576)
In words: BSK_hDFCGF_IL8: BioMAP Diversity Plus: hDFCGF Assay for Interleukin-8 (IL8) Biomarker Activity (AID 2283058). The following applies: actives raise or lower the signal; primary human foreskin fibroblasts. The essentials:
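Fibroblast monolayers (human foreskin, hDFCGF) received test chemical for 24 h before ELISA detection of IL-8; either increases or decreases relative to DMSO count as activity.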

A short description of experiment [20]: BSK_hDFCGF_Proliferation: Cell Proliferation Assessment in the BioMAP Diversity Plus: hDFCGF Assay (AID 2283059).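 Further: curves fitted for both rise and fall of signal versus DMSO baseline.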 The following applies: primary human foreskin fibroblasts. The essentials:
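This proliferation readout used SRB total-protein staining of human foreskin fibroblasts […], normalized to DMSO with bidirectional curve fitting.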

For `O=[N+]([O-])c1ccc([N+](=O)[O-])cc1`, the result in experiment [1], in experiment [2], in experiment [3], in experiment [4], in [5] and in experiment [6] was inactive. For the same molecule, the outcome in experiment [7], in [8], in experiment [9], in experiment [10], in [11] and in experiment [13] was inactive. Also, the outcome in experiment [14], in experiment [15], in [16], in experiment [17] and in experiment [19] was inactive. The AC50 in experiment [12] is active: 0.493 µM; in experiment [18], active: 2.85 µM.

Consider `O=C(Cl)Oc1ccccc1`, for which the outcome in experiment [1], in experiment [2], in experiment [3], in experiment [4], in experiment [5] and in experiment [6] was inactive. Also, the result in experiment [7], in experiment [8], in experiment [9], in experiment [10], in experiment [11] and in [12] was inactive. In addition, the outcome in [13], in experiment [14], in experiment [15], in experiment [16], in [17] and in experiment [18] was inactive. Moreover, the outcome in [19] and in experiment [20] was inactive.

For the molecule `O=C1C2CC=CCC2C(=O)N1SC(Cl)(Cl)C(Cl)Cl` (configuration not stated), the AC50 in experiment [1] is active: 5.5 µM; in experiment [3], active: 13 µM; in experiment [4] it was active: 5.49 µM; in [5], active: 7.92 µM; in experiment [7] it was active: 9.33 µM; in experiment [14] it was active: 523 nM. For the same molecule, the AC50 in experiment [16] was active: 7.72 µM; in [17] it was active: 941 nM; in [20], active: 0.933 µM. The outcome in [2], in [6], in [11], in experiment [12] and in experiment [13] was inactive.

Consider `CN(C(=O)Cc1cccc2occc12)[C@H]1CC[C@@]2(CCCO2)C[C@@H]1N1CCCC1`, for which the result in [1], in experiment [2], in experiment [3], in experiment [4], in [5] and in experiment [6] was inactive. Further, the result in experiment [7], in experiment [8], in experiment [9], in [10], in experiment [11] and in experiment [12] was inactive. The result in experiment [13], in experiment [14], in experiment [15], in experiment [16], in experiment [17] and in experiment [18] was inactive. The result in [19] and in [20] was inactive.

For `Cc1cc([N+](=O)[O-])cc([N+](=O)[O-])c1O`, the outcome in experiment [1], in [2], in [3], in experiment [4], in [5] and in experiment [6] was inactive. Moreover, the result in [7], in experiment [8], in [9], in [10], in [11] and in experiment [12] was inactive. Further, the result in [13], in experiment [15], in experiment [16], in [18] and in [19] was inactive. Further, the AC50 in experiment [14] was active: 20000 nM; in experiment [17], active: 12100 nM; in experiment [20], active: 20 µM.

`CC(C)OP(=S)(OC(C)C)SCCNS(=O)(=O)c1ccccc1`: the outcome in experiment [1], in experiment [2], in experiment [3], in experiment [4], in experiment [5] and in experiment [6] was inactive. Besides, the result in experiment [7], in experiment [8], in experiment [9], in experiment [10], in [11] and in experiment [12] was inactive. The result in experiment [13], in experiment [15], in [16], in experiment [18] and in experiment [19] was inactive. Further, the AC50 in experiment [6] is active: 19.5 µM; in experiment [8] it was active: 29.4 µM and active: 25.8 µM; in [12], active: 20 µM; in experiment [14] it was active: 36.6 µM and active: 32.4 µM and active: 31.5 µM; in experiment [17], active: 36.1 µM and active: 33.6 µM and active: 31.7 µM; in experiment [18], active: 27.6 µM and active: 34 µM. For the same molecule, in experiment [19], the AC50 was active: 29.2 µM and active: 36.1 µM.

A word on the AC50: it is the concentration giving half of the maximal activity seen.
